The source of these data is patent US20070142378A1, “Method of treating restless legs syndrome and/or periodic limb movement disorder with (2s,3s) 2-(3-chlorophenyl)-3,5,5-trimethyl-2-morpholinol” (Smith Kline Beecham Corporation, priority 2003, published 2007).

The chains behind the UniProt entries cited, without tags or fusion partners.
UniProt Q01959, whole entry: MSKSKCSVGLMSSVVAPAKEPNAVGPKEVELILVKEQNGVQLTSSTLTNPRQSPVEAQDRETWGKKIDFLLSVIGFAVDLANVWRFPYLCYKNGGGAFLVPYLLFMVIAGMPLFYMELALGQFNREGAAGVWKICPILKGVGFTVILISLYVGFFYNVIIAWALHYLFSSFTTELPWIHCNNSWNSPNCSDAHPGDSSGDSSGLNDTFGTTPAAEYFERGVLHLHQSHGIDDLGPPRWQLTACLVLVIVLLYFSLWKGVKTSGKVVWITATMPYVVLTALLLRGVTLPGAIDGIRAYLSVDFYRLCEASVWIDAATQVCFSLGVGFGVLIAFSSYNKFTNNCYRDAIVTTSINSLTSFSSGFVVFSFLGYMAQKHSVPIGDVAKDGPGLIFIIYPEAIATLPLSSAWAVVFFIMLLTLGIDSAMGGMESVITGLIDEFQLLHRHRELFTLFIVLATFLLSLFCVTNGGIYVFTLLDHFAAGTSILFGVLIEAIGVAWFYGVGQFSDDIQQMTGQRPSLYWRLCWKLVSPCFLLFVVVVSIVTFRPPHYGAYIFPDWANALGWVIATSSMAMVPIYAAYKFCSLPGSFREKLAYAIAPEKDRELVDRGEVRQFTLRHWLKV

Counter-ions that a name gives are not always drawn.

The test concerns the target dopamine transporter (DAT) (Homo sapiens, UniProt Q01959). The experiment in a line: Functional reuptake inhibition, CHO-K1/hDAT cells. Type of test: cell-based. Set-up: expressed in transfected cells; host or cells: CHO-K1. To be noted: mean±SEM, n=3. On the procedure: Three separate cell-lines expressing human monoamine transporters for dopamine (hDAT) noradrenaline (hNET) and serotonin (hSERT) were used to measure the functional reuptake inhibiting properties of the compound of formula (I) (as its hydrochloride salt). The following methods were utilised.
Human dopamine transporter (hDAT): CHO-K1/hDAT cells (8×10^4 cells/well) expressing the human dopamine transporter (hDAT) were plated on 96-well format one day before the assay. Cells were preincubated with test compound and/or vehicle in modified Tris-HEPES buffer pH 7.1 at 25° C. for 20 minutes, then 50 nM [^3H]Dopamine was added to make the total volume to 200 μl and further incubated for 10 minutes. Cells in the well were then rinsed twice, solubilized with 1% SDS lysis buffer and the lysate was counted to determine [^3H]Dopamine uptake. Non-specific signal was determined in the presence of 10 μM nomifensine. […]
Compounds were screened at 10, 1, 0.1, 0.01 and 0.001 μM. These same concentrations were concurrently applied to a separate group of untreated cells and evaluated for possible compound-induced cytotoxicity only if significant inhibition of uptake was observed. Radioactivity retained on the filters was determined by scintillation counting overnight using a Packard scintillation counter.

In turn, `C[C@@H]1NC(C)(C)CO[C@@]1(O)c1cccc(Cl)c1` [Formula (I).HCl, (+)-(2S, 3S)2-(3-chlorophenyl)-3,5,5-trimethyl-2-morpholinol hydrochloride] came in with an IC50 of 440 ± 10 nM.

As usually defined, the IC50 is the concentration that inhibits the measured activity by half. A lower IC50 goes with inhibition by little substance.
